Measured values from patent US20080026996A1, “Selective Vpac2 Receptor Reptide Agonists” (ELI LILLY AND COMPANY, priority 2004, published 2008).
Where no end group is shown, it is not given here. [ ]: non-standard residue; d: D form. hArg = N=C(N)NCCCC[C@H](N)C(=O)O

Target: T1, human VPAC2 receptor (human, UniProt P41587 24-438)
T1 sequence (looked up): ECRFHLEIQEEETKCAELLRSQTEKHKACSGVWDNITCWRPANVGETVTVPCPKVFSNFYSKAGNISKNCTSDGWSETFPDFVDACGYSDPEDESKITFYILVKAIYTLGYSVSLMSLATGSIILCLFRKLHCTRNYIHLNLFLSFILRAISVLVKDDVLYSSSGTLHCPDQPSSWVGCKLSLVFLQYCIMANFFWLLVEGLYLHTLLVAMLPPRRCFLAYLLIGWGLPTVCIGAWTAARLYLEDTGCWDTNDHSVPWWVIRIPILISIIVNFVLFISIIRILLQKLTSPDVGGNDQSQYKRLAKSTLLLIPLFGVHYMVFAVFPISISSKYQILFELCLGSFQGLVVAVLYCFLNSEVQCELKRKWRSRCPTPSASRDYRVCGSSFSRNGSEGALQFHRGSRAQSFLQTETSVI
Test: cell-based or functional assay

HSDAVFTDNYTRLRKQVAA[hArg]KYLQSIKNKRYGGPSSGAPPPS (ends and bridges not checked) [P18]
EC50 cAMP, Alpha Screen: 3.31 nM | EC50 cAMP, DiscoveRx: 2.87 nM
